Experimental data: patent US20260384421A1, “NOVEL COMPOUNDS THAT CAN BE USED AS THERAPEUTIC AGENTS” (published 2026)
pIC50: −log10 of the molar value.

Columns and labels:
NCI-H460 cells = test: alamarBlue proliferation assay with NCI-H460 cells; conditions: read-out: Activity on NCI-H460: IC50, RPMI 1640 medium, 10% FBS
A-431 cells = test: alamarBlue proliferation assay with A-431 cells; conditions: read-out: Activity on A-431: IC50, DMEM medium, 10% FBS
CF21.T cells = test: alamarBlue proliferation assay with CF21.T cells; conditions: read-out: Activity on CF21.T: IC50; CF21.T canine cells, DMEM medium, 10% FBS
A-375 cells = test: alamarBlue proliferation assay with A-375 cells; conditions: read-out: Activity on A-375: IC50, DMEM medium, 10% FBS
C2C12 cells = test: alamarBlue proliferation assay with C2C12 cells; conditions: read-out: Activity on C2C12: IC50; C2C12 murine myoblast cells, RPMI 1640 medium, 10% FBS
HEP-G2 cells = test: alamarBlue proliferation assay with HEP-G2 cells; conditions: read-out: Activity on HEP-G2: IC50, RPMI 1640 medium, 10% FBS
U-87 MG cells = test: alamarBlue proliferation assay with U-87 MG cells; conditions: read-out: Activity on U-87MG: IC50, EMEM medium, 10% FBS

Row | SMILES | pIC50 (NCI-H460 cells) | pIC50 (A-431 cells) | pIC50 (A-375 cells) | pIC50 (HEP-G2 cells) | further results
1 | CN(C)C(=O)c1ccc(CN2CCN(C(=O)c3ccc(Oc4ccc(C5CCC6(CC5)OCCO6)cc4CO)cc3)CC2)cc1 | ≥ 6.00 |  |  |  | 
2 | COC1CCC(c2ccc(Oc3ccc(C(=O)N4CCN(Cc5ccc(C(F)(F)F)cn5)CC4)cc3)c(CO)c2)CC1 (stereo not shown) |  | ≥ 6.70 | ≥ 6.70 |  | pIC50 (CF21.T cells): ≥ 6.70
3 | O=C(c1ccc(Oc2ccc(C3CCC4(CC3)OCCO4)cc2CO)cc1)N1CCN(Cc2ccccc2Cl)CC1 |  |  |  |  | pIC50 (C2C12 cells): ≥ 4.70
4 | COC1CCC(c2ccc(Oc3ccc(C(=O)N4CCN(Cc5ccc(Cl)cc5)CC4)cc3)c(CO)c2)CC1 (stereo not shown) | ≥ 6.70 | ≥ 6.70 | ≥ 6.70 | ≥ 6.70 | 
5 | COC1CCC(c2ccc(Oc3ccc(C(=O)N4CCN(Cc5ccc(OCC(F)(F)F)cc5)CC4)cc3)c(CO)c2)CC1 (stereo not shown) |  |  | ≥ 6.70 |  | pIC50 (CF21.T cells): ≥ 6.70
6 | COC1CCC(c2ccc(Oc3ccc(C(=O)N4CCN(Cc5cnc6ccccc6c5)CC4)nc3)c(CO)c2)CC1 (stereo not shown) |  |  |  | ≥ 6.70 | 
7 | O=C(c1ccc(Oc2ccc(C3CCC4(CCCO4)CC3)cc2CO)cc1)N1CCN(Cc2ccccc2)CC1 (stereo not shown) | ≥ 5.30 |  |  |  | 
8 | COc1ccc(CN2CCN(C(=O)c3ccc(Oc4ccc(C5CCCCC5)cc4CO)cc3)CC2)cc1 | ≥ 6.70 |  |  | ≥ 6.70 | 
9 | O=C(c1ccc(Oc2ccc(C3CCC4(CC3)OCCCO4)cc2CO)cc1)N1CCN(Cc2ccccc2)CC1 | ≥ 6.00 |  |  |  | 
10 | O=C(c1ccc(Oc2ccc(C3CCC4(CC3)OCCO4)cc2CO)cc1)N1CCN(Cc2ccoc2)CC1 | ≥ 5.30 |  |  |  | 
11 | COC1CCC(c2ccc(Oc3ccc(C(=O)N4CCN(Cc5ccc(OC(F)(F)F)cc5)CC4)cc3)c(CO)c2)CC1 (stereo not shown) |  | ≥ 6.70 | ≥ 6.70 | ≥ 6.70 | pIC50 (CF21.T cells): ≥ 6.70
12 | O=C(c1ccc(Oc2ccc(C3CCC4(CC3)SCCCS4)cc2CO)cn1)N1CCN(Cc2ccc(Cl)cc2)CC1 |  |  | ≥ 6.70 |  | pIC50 (CF21.T cells): ≥ 6.00
13 | O=C(c1ccc(Oc2ccc(C3CCC4(CC3)OCCO4)cc2CO)cc1)N1CCN(Cc2cccs2)CC1 | ≥ 4.70 |  |  |  | 
14 | COc1ccc(CN2CCN(C(=O)c3ccc(Oc4ccc(C5CCC(OC)CC5)cc4CO)cn3)CC2)cc1 (stereo not shown) | ≥ 6.70 | ≥ 6.70 | ≥ 6.70 | ≥ 6.70 | 
15 | O=C(c1ccc(Oc2ccc(C3CCC4(CC3)OCCO4)cc2CO)cc1)N1CCN(Cc2ccc(O)cc2)CC1 | ≥ 6.70 |  |  |  | pIC50 (U-87 MG cells): ≥ 4.70
16 | O=C(c1ccc(Oc2ccc(C3CCCCC3)cc2CO)cc1)N1CCN(Cc2ccc(Cl)cc2)CC1 |  |  |  | ≥ 6.70 | 
17 | COC1CCC(c2ccc(Oc3ccc(C(=O)N4CCN(Cc5ccc(Cl)cn5)CC4)cc3)c(CO)c2)CC1 (stereo not shown) |  |  |  | ≥ 6.70 | pIC50 (CF21.T cells): ≥ 6.70
18 | COC1CCC(c2ccc(Oc3ccc(C(=O)N4CCN(Cc5ccc(S(F)(F)(F)(F)F)cc5)CC4)cc3)c(CO)c2)CC1 (stereo not shown) |  | ≥ 6.70 | ≥ 6.70 | ≥ 6.70 | pIC50 (CF21.T cells): ≥ 6.70
19 | O=C(c1ccc(Oc2ccc(C3CCC4(CC3)OCCO4)cc2CO)cc1)N1CCN(Cc2ccc(C(F)(F)F)cn2)CC1 |  |  |  |  | pIC50 (C2C12 cells): ≥ 6.00; pIC50 (U-87 MG cells): ≥ 4.70
20 | COC1CCC(c2ccc(Oc3ccc(C(=O)N4CCN(Cc5ccc(C(F)(F)F)cc5)CC4)cc3)c(CO)c2)CC1 (stereo not shown) |  | ≥ 6.70 | ≥ 6.70 |  | pIC50 (CF21.T cells): ≥ 6.70
21 | COC1CCC(c2ccc(Oc3ccc(C(=O)N4CCN(Cc5ccccc5)CC4)nc3)c(CO)c2)CC1 (stereo not shown) | ≥ 6.70 |  |  | ≥ 6.70 | 
22 | COC(=O)c1ccc(CN2CCN(C(=O)c3ccc(Oc4ccc(C5CCC6(CC5)OCCO6)cc4CO)cc3)CC2)cc1 | ≥ 6.70 |  |  |  | 
23 | O=C(c1ccc(Oc2ccc(C3CCC4(CC3)OCCO4)cc2CO)cc1)N1CCCN(Cc2ccc(Cl)cc2)CC1 |  |  |  |  | pIC50 (C2C12 cells): ≥ 5.30; pIC50 (U-87 MG cells): ≥ 5.30
24 | COc1ccc(CN2CCN(C(=O)c3ccc(Oc4ccc(C5CCCCC5)cc4CO)cn3)CC2)cc1 | ≥ 6.70 |  |  | ≥ 6.70 | 
25 | COC1CCC(c2ccc(Oc3ccc(C(=O)N4CCN(Cc5ccc(C(F)(F)F)cc5)CC4)nc3)c(CO)c2)CC1 (stereo not shown) |  | ≥ 6.70 | ≥ 6.70 |  | pIC50 (CF21.T cells): ≥ 6.70
26 | COCC1(COC)CCC(c2ccc(Oc3ccc(C(=O)N4CCN(Cc5ccc(Cl)cc5)CC4)cc3)c(CO)c2)CC1 |  |  |  | ≥ 6.70 | pIC50 (CF21.T cells): ≥ 6.70

Row | SMILES | pIC50 (NCI-H460 cells) | pIC50 (A-431 cells) | pIC50 (A-375 cells) | pIC50 (HEP-G2 cells) | further results
27 | COC1CCC(c2ccc(Oc3ccc(C(=O)N4CCN(Cc5ccc(C(F)(F)F)nc5)CC4)cc3)c(CO)c2)CC1 (stereo not shown) |  | ≥ 6.70 | ≥ 6.70 |  | pIC50 (CF21.T cells): ≥ 6.70
28 | O=C(c1ccc(Oc2ccc(C3CCC4(CC3)OCCO4)cc2CO)cc1)N1CCN(Cc2ccsc2)CC1 | ≥ 4.70 |  |  |  | pIC50 (U-87 MG cells): ≥ 4.70
29 | O=C(c1ccc(Oc2ccc(C3CCC4(CC3)OCCO4)cc2CO)cc1)N1CCN(Cc2ccc([N+](=O)[O-])cc2)CC1 | ≥ 6.70 |  |  |  | pIC50 (U-87 MG cells): ≥ 4.70
30 | O=C(c1ccc(Oc2ccc(C3CCCCC3)cc2CO)cc1)N1CCN(Cc2ccc(OC(F)(F)F)cc2)CC1 |  | ≥ 6.70 | ≥ 6.70 |  | 
31 | Cn1c(CN2CCN(C(=O)c3ccc(Oc4ccc(C5CCC6(CC5)OCCO6)cc4CO)cc3)CC2)cc2ccccc21 |  |  |  |  | pIC50 (C2C12 cells): ≥ 6.00; pIC50 (U-87 MG cells): ≥ 6.00
32 | COc1cc(C2CCC(OC)CC2)ccc1Oc1ccc(C(=O)N2CCN(Cc3ccc(Cl)cc3)CC2)cc1 (stereo not shown) |  | ≥ 6.00 | ≥ 6.70 |  | 
33 | CS(=O)(=O)c1ccc(CN2CCN(C(=O)c3ccc(Oc4ccc(C5CCC6(CC5)OCCO6)cc4CO)cc3)CC2)cc1 |  |  |  |  | pIC50 (C2C12 cells): ≥ 6.00; pIC50 (U-87 MG cells): ≥ 6.00
34 | O=Cc1cc(C2CCC3(CC2)SCCCS3)ccc1Oc1ccc(C(=O)N2CCN(Cc3ccc(Cl)cc3)CC2)nc1 |  |  | ≥ 6.70 |  | pIC50 (CF21.T cells): ≥ 6.00
35 | COCC1(COC)CCC(c2ccc(Oc3ccc(C(=O)N4CCN(Cc5ccc(OC)cc5)CC4)cc3)c(CO)c2)CC1 |  |  |  | ≥ 6.70 | pIC50 (CF21.T cells): ≥ 6.70
36 | O=C(c1ccc(Oc2ccc(C3CCC4(CC3)OCCO4)cc2CO)cc1)N1CCN(Cc2ccc(Cl)cc2)CC1 | ≥ 6.70 | ≥ 6.70 | ≥ 6.70 | ≥ 6.70 | pIC50 (C2C12 cells): ≥ 6.00; pIC50 (U-87 MG cells): ≥ 6.70; pIC50 (CF21.T cells): ≥ 6.70
37 | COc1ccc(CN2CCN(C(=O)c3ccc(Oc4ccc(C5CCC6(CC5)SCCCS6)cc4CO)cn3)CC2)cc1 |  |  | ≥ 6.70 |  | 
38 | O=C(c1ccc(Oc2ccc(C3CCC4(CC3)OCCO4)cc2CO)cc1)N1CCN(Cc2ccc3ccccc3c2)CC1 | ≥ 6.70 | ≥ 6.70 |  | ≥ 6.70 | 
39 | CN(C)S(=O)(=O)c1ccc(CN2CCN(C(=O)c3ccc(Oc4ccc(C5CCC6(CC5)OCCO6)cc4CO)cc3)CC2)cc1 | ≥ 6.70 |  |  |  | pIC50 (C2C12 cells): ≥ 6.70
40 | COc1ccc(CN2CCN(C(=O)c3ccc(Oc4ccc(C5CCC6(CC5)OCCO6)cc4CO)cc3)CC2)cn1 |  | ≥ 6.70 | ≥ 6.70 |  | pIC50 (C2C12 cells): ≥ 6.00; pIC50 (U-87 MG cells): ≥ 6.00
41 | COC1CCC(c2ccc(Oc3ccc(C(=O)N4CCN(Cc5ccc6ccccc6c5)CC4)nc3)c(CO)c2)CC1 (stereo not shown) |  |  | ≥ 6.70 |  | pIC50 (CF21.T cells): ≥ 6.00
42 | COc1ccc(CN2CCN(C(=O)c3ccc(Oc4ccc(C5CCC(OC)CC5)cc4O)cn3)CC2)cc1 (stereo not shown) |  |  |  | ≥ 6.70 | 
43 | COc1ccc(CN2CCN(C(=O)c3ccc(Oc4ccc(C5CCC(OC)CC5)cc4CO)cc3)CC2)cc1 (stereo not shown) | ≥ 6.70 | ≥ 6.70 | ≥ 6.70 | ≥ 6.70 | 
44 | O=C(c1ccc(Oc2ccc(C3CCC4(CC3)OCCO4)cc2CO)cn1)N1CCN(Cc2ccccc2)CC1 |  |  |  |  | pIC50 (C2C12 cells): ≥ 5.30
45 | O=C(c1ccc(Oc2ccc(C3CCCCC3)cc2CO)cn1)N1CCN(Cc2ccc(OC(F)(F)F)cc2)CC1 |  |  |  | ≥ 6.70 | 
46 | O=C(c1ccc(Oc2ccc(C3CCC4(CC3)SCCS4)cc2CO)cn1)N1CCN(Cc2ccc(Cl)cc2)CC1 |  |  | ≥ 6.70 |  | pIC50 (CF21.T cells): ≥ 5.30
47 | O=C(c1ccc(Oc2ccc(C3CCC4(CC3)OCCO4)cc2CO)cc1)N1CCN(Cc2ccc(Cl)cn2)CC1 |  |  |  |  | pIC50 (C2C12 cells): ≥ 5.30; pIC50 (U-87 MG cells): ≥ 6.00
48 | O=C(c1ccc(Oc2ccc(C3CCC4(CC3)OCCO4)cc2CO)cc1)N1CCN(Cc2ccc(C(F)(F)F)nc2)CC1 |  | ≥ 6.70 | ≥ 6.70 |  | pIC50 (C2C12 cells): ≥ 6.70; pIC50 (U-87 MG cells): ≥ 4.70
49 | O=C(c1ccc(Oc2ccc(C3CCC4(CC3)OCCO4)cc2CO)cc1)N1CCN(Cc2ccc3oc(=O)ccc3c2)CC1 | ≥ 6.70 |  |  |  | pIC50 (C2C12 cells): ≥ 5.30; pIC50 (U-87 MG cells): ≥ 6.70
50 | O=C(c1ccc(Oc2ccc(C3CCC4(CC3)OCCO4)cc2CO)cc1)N1CCCN(Cc2ccc(C(F)(F)F)cc2)CC1 |  |  |  |  | pIC50 (C2C12 cells): ≥ 6.70; pIC50 (U-87 MG cells): ≥ 5.30
51 | O=C(c1ccc(Oc2ccc(C3CCC4(CCCC4)CC3)cc2CO)cc1)N1CCN(Cc2ccccc2)CC1 |  | ≥ 6.00 |  | ≥ 6.00 | pIC50 (U-87 MG cells): ≥ 5.30
